From patent publication US9181266B2, “2-piperidin-1-yl-acetamide compounds for use as tankyrase inhibitors” (NOVARTIS AG, priority 2011, dated 2015)

By UniProt entry, the sequences of proteins in these tests, tags left out. Residues count along the entry.
UniProt Q9H2K2, 959-1164: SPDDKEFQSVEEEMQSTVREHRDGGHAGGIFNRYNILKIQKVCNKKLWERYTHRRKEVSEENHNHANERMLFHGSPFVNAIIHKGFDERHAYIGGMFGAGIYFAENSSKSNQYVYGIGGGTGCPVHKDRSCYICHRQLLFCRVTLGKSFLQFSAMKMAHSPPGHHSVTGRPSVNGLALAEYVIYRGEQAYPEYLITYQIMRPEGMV
UniProt P09874, whole entry: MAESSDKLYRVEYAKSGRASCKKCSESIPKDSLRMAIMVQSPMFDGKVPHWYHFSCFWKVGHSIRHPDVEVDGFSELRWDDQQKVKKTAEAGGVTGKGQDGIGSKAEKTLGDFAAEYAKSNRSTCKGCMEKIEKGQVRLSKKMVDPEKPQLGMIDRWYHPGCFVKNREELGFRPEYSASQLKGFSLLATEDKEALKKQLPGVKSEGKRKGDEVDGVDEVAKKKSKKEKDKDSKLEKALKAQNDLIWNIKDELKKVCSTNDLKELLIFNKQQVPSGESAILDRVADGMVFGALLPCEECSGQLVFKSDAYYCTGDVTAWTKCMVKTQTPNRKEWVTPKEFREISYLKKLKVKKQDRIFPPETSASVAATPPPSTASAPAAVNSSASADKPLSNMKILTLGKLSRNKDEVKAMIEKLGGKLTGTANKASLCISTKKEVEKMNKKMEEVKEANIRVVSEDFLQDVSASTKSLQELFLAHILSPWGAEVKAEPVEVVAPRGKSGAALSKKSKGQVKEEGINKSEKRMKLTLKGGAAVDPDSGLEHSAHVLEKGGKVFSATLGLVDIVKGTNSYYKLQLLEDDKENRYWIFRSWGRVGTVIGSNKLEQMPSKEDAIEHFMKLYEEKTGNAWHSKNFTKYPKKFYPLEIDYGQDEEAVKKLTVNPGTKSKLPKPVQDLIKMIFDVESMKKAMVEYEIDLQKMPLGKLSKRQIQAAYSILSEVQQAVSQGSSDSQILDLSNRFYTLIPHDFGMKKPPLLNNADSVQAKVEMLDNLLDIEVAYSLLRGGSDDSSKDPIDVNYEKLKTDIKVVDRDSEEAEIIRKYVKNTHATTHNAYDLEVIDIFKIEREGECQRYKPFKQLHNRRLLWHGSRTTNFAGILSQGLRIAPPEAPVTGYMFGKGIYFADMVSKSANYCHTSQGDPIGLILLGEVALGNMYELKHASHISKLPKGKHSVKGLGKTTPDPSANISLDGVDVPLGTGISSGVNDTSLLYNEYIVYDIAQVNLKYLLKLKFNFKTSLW

These molecules were tested against tankyrase 2 protein PARP domain, TNKS2P (Homo sapiens (Human), UniProt Q9H2K2) (assay: TNKS2 autoparsylation assay (LC/MS detection of nicotinamide)). Conditions: read-out: TNKS2 AP IC50, 20 nM enzyme, 250 μM β-NAD+, 60 min.

| SMILES | IC50 |
| --- | --- |
| O=C(CN1CCC(C(=O)c2ccc(F)cc2)CC1)NCc1nc2c(c(=O)[nH]1)COCC2 [Example 1, 2-(4-(4-Fluorobenzoyl)piperidin-1-yl)-N-((4-oxo-4,5,7,8-tetrahydro-3H-pyrano[4,3-d]pyrimidin-2-yl)methyl)acetamide] | 23 ± 9 nM |
| COc1ccc(C(=O)C2CCN(CC(=O)N(Cc3nc4c(c(=O)[nH]3)COCC4)CC3CC3)CC2)cc1 [Example 5, N-Cyclopropylmethyl-2-[4-(4-methoxy-benzoyl)-piperidin-1-yl]-N-(4-oxo-3,5,7,8-tetrahydro-4H-pyrano[4,3-d]pyrimidin-2-ylmethyl)-acetamide] | 6 ± 1 nM |
| O=C(c1ccc(F)cc1)C1CCN(CC(=O)N(Cc2nc3c(c(=O)[nH]2)COCC3)Cc2cccs2)CC1 [Example 13, 2-(4-(4-Fluorobenzoyl)piperidin-1-yl)-N-((4-oxo-4,5,7,8-tetrahydro-3H-pyrano[4,3-d]pyrimidin-2-yl)methyl)-N-(thiophen-2-ylmethyl)acetamide] | 7.5 ± 2 nM |
| O=C(c1ccc(F)cc1)C1CCN(CC(=O)N(Cc2ccccn2)Cc2nc3c(c(=O)[nH]2)COCC3)CC1 [Example 22, 2-(4-(4-Fluorobenzoyl)piperidin-1-yl)-N-((4-oxo-4,5,7,8-tetrahydro-3H-pyrano[4,3-d]pyrimidin-2-yl)methyl)-N-(pyridin-2-ylmethyl)acetamide] | 31 ± 2 nM |
| O=C(c1ccc(F)cc1)C1CCN(CC(=O)N(Cc2nc3c(c(=O)[nH]2)COCC3)CC2CC2)CC1 [Example 24, N-Cyclopropylmethyl-2-[4-(4-fluoro-benzoyl)-piperidin-1-yl]-N-(4-oxo-3,5,7,8-tetrahydro-4H-pyrano[4,3-d]pyrimidin-2-ylmethyl)-acetamide] | 10.7 ± 4.9 nM |
| CC(C)CN(Cc1nc2c(c(=O)[nH]1)COCC2)C(=O)CN1CCC(C(=O)c2ccc(F)cc2)CC1 [Example 26, 2-(4-(4-Fluorobenzoyl)piperidin-1-yl)-N-isobutyl-N-((4-oxo-4,5,7,8-tetrahydro-3H-pyrano[4,3-d]pyrimidin-2-yl)methyl)acetamide] | 18 ± 2 nM |
| CN(Cc1nc2c(c(=O)[nH]1)COCC2)C(=O)CN1CCC(C(=O)c2ccc(F)cc2)CC1 [Example 30] | 57 ± 1 nM |
| CCCN(Cc1nc2c(c(=O)[nH]1)COCC2)C(=O)CN1CCC(C(=O)c2ccc(F)cc2)CC1 [Example 34, 2-(4-(4-Fluorobenzoyl)piperidin-1-yl)-N-((4-oxo-4,5,7,8-tetrahydro-3H-pyrano[4,3-d]pyrimidin-2-yl)methyl)-N-propylacetamide] | 11 ± 1 nM |
| O=C(c1ccc(F)cc1)C1CCN(CC(=O)N(Cc2ccccc2)Cc2nc3c(c(=O)[nH]2)COCC3)CC1 [Example 38, N-Benzyl-2-(4-(4-fluorobenzoyl)piperidin-1-yl)-N-((4-oxo-4,5,7,8-tetrahydro-3H-pyrano[4,3-d]pyrimidin-2-yl)methyl)acetamide] | 16 ± 1 nM |

Each molecule was assayed against Human PARP1 (Homo sapiens (Human), UniProt P09874) (assay: PARP1 autoparsylation assay (LC/MS detection of nicotinamide)). Conditions: 20 nM enzyme, 250 μM β-NAD+, 60 min.
Assay type: biochemical
Protocol: The autoparsylation activity of the TNKS 1/2 or PARP1/2 enzymes was measured by the liquid chromatography-mass spectrometry (LC/MS) detection of nicotinamide as readout. Compound activity in inhibiting the TNKS and PARP autoparsylation was evaluated by IC50 measurements.

| SMILES | IC50 |
| --- | --- |
| O=C(CN1CCC(C(=O)c2ccc(F)cc2)CC1)NCc1nc2c(c(=O)[nH]1)COCC2 [Example 1, 2-(4-(4-Fluorobenzoyl)piperidin-1-yl)-N-((4-oxo-4,5,7,8-tetrahydro-3H-pyrano[4,3-d]pyrimidin-2-yl)methyl)acetamide] | 10400 ± 1800 nM |
